Tests used:
[1] = system: A*2401; experiment: HLA class I peptide binding assay, A*2401; design: species or system human
[2] = system: HLA-DR alleles; details: result in words; cited from earlier work

| Substance | A*2401 (binding information) ([1]; HBV A24 supermotif peptides, HLA-A*2401 binding value as printed, no unit given in the table) | A*2401 binding ([1]; Table XVII, HBV A24 motif peptides, unit not given) | binding to HLA-DR alleles [2] |
| --- | --- | --- | --- |
| SWLSLLVPF [Peptide 20.0136] | 0.3900 | 0.3900 | – |
| aKXVWANTLKAAa | – | – | bind to most HLA-DR alleles |
